Target: T1, Oxytocin receptor (Rattus norvegicus, UniProt P70536)
T1 sequence (P70536 whole entry): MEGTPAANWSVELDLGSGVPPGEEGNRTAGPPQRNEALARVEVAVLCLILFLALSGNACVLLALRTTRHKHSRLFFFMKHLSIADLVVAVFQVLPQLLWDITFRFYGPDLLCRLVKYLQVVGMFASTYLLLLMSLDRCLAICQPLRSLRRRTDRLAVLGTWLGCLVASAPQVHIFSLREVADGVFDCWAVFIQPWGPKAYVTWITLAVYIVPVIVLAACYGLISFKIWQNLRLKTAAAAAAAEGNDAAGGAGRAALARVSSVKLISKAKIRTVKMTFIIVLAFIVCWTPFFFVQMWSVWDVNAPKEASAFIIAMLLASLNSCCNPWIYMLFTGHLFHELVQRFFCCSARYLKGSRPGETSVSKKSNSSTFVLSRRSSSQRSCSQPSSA
Assay: Compound was tested for displacement of 3[H] oxytocin from rat OT receptor (in vitro)
Format: functional

Question: Which IC50 does the source give for COc1cc(OC2CCN(C(C)=O)CC2)ccc1C(=O)N1CCC(N2C(=O)OCc3ccccc32)CC1 here?
Answer: The IC50 was 640 nM.
